Assay results from article PMC10246557, “Kinetic and inhibition studies on human Jumonji-C (JmjC) domain-containing protein 5” (RSC Chemical Biology, 2023).

The chains behind the UniProt entries cited, without tags or fusion partners.
UniProt B2RXH2, whole entry: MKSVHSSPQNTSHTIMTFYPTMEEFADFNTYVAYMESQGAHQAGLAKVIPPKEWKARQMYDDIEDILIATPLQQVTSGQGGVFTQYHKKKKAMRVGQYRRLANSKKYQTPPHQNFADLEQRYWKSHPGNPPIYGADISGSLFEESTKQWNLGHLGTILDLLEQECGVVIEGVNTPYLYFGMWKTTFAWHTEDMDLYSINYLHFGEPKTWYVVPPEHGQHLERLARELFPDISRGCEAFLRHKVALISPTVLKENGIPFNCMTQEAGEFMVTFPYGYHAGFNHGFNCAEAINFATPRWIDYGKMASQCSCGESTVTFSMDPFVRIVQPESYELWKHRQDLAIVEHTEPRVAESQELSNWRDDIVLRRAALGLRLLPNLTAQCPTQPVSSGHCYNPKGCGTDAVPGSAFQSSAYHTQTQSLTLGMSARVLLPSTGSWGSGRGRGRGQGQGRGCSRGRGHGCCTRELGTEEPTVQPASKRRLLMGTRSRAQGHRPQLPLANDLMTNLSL
UniProt Q8N371, whole entry: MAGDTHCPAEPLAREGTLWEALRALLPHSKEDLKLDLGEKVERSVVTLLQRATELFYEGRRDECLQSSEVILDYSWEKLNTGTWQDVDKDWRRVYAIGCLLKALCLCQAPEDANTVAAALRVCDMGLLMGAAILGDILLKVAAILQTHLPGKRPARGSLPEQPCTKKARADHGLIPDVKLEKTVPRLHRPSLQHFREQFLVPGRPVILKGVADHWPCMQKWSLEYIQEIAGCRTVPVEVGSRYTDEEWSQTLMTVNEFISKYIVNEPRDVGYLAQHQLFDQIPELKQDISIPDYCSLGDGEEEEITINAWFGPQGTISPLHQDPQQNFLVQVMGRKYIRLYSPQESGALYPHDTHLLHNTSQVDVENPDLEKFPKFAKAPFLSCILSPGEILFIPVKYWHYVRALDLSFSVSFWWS

Tests used:
human FIH = details: absence of 2OG; FIH 0.15 μM, 2OG derivative 330 μM, Fe(II) 50 μM, HIF-1α788–822 5.0 μM; cited from earlier work
human KDM4E = human KDM4E (Homo sapiens, UniProt B2RXH2); test: KDM4E SPE-MS turnover and kinetic assay (H3 K9(me3) peptide demethylation); type: biochemical; details: absence of 2OG; KDM4E 0.15 μM, 2OG derivative 330 μM, Fe(II) 50 μM, ARTAQTARK(me3)STGGIA 10.0 μM
human JMJD5 = human JMJD5 (Homo sapiens, UniProt Q8N371); test: SPE-MS JMJD5 turnover and kinetic assay (RPS6_128–148 hydroxylation); type: biochemical; details: absence of 2OG; JMJD5 0.15 μM, 2OG derivative 400 μM, Fe(II) 20 μM, RPS6_128–148 2.0 μM
human AspH = details: absence of 2OG; AspH 0.1 μM, 2OG derivative 330 μM, Fe(II) 50 μM, hFX-CP101–119 2.0 μM; cited from earlier work

CC(C)(C)CCC(CC(=O)O)C(=O)C(=O)O (stereo not drawn)
< 1%: FIH (%): substrate hydroxylation with the compound as cosubstrate (human FIH) | KDM4E (%): substrate demethylation with the compound as cosubstrate (human KDM4E) | JMJD5 (%): RPS6_128–148 hydroxylation with the compound as cosubstrate (human JMJD5) | AspH (%): substrate hydroxylation with the compound as cosubstrate (human AspH)

O=C(O)C(=O)c1cccc(C(=O)O)c1 [C00016]
< 1%: FIH (%): substrate hydroxylation with the compound as cosubstrate (human FIH) | KDM4E (%): substrate demethylation with the compound as cosubstrate (human KDM4E) | JMJD5 (%): RPS6_128–148 hydroxylation with the compound as cosubstrate (human JMJD5) | AspH (%): substrate hydroxylation with the compound as cosubstrate (human AspH)

Cc1cc(C)cc(CC(CC(=O)O)C(=O)C(=O)O)c1 (stereo not drawn)
< 1%: FIH (%): substrate hydroxylation with the compound as cosubstrate (human FIH) | KDM4E (%): substrate demethylation with the compound as cosubstrate (human KDM4E) | JMJD5 (%): RPS6_128–148 hydroxylation with the compound as cosubstrate (human JMJD5) | AspH (%): substrate hydroxylation with the compound as cosubstrate (human AspH)
